One molecule from paper PMC5660261, “Binding and Signaling Studies Disclose a Potential Allosteric Site for Cannabidiol in Cannabinoid CB2 Receptors” (Frontiers in Pharmacology, 2017) can be followed below.

Protein sequences, listed by entry. Tags and fused reporters are not part of them.
UniProt P34972, whole entry: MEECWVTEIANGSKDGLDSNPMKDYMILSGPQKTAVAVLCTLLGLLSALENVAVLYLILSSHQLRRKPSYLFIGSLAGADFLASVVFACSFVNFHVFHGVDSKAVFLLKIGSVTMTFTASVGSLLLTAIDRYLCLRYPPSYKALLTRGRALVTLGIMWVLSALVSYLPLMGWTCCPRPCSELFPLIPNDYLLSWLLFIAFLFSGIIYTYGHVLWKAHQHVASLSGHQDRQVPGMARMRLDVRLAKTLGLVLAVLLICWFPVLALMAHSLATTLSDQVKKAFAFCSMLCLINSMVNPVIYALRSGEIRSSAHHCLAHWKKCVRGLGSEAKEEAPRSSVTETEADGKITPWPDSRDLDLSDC

In test [1] the target is T1, human CB2R (Homo sapiens, UniProt P34972).
T1 construct: host or cells: HEK-293T, transient transfection, living cells
Nature of the test: HTRF (Tag-lite) competition binding of red CB2R ligand in living HEK-293T cells expressing SNAP-CB2R. The note with it: 100 nM red CB2R ligand, CBD 0–10 μM, partial competition, read-out: IC50 of competition of fluorescent agonist binding. A general note: In TR-FRET formats the signal depends on donor and acceptor labels being close together.

Test [2] has as its target T1, human CB2R. The experiment in a line: Forskolin-induced intracellular cAMP determination in HEK-293T cells expressing CB2R. It counts as cell-based. The note with it: 100 nM JWH133, 0.5 μM forskolin, HEK-293T cells expressing human CB2R; read-out: IC50 of the block of JWH133-induced decrease in forskolin-induced cAMP levels. The method, then: Two hours before initiating the experiment, growth medium was replaced by serum-free DMEM. Then, HEK-293T cells transiently expressing CB2R or GPR55 were detached and resuspended in growing medium containing 50 μM zardaverine and plated in 384-well microplates (2,500 cells/well), pretreated (15 min) with the corresponding antagonists—or vehicle—and stimulated with agonists (15 min) before adding 0.5 μM forskolin or vehicle. Readings were performed after 15 min of incubation at 25°C. HTRF measures were performed using the Lance Ultra cAMP kit (PerkinElmer, Waltham, MA, United States). Fluorescence at 665 nm was analyzed on a PHERAstar Flagship microplate reader equipped with an HTRF optical module (BMG Lab Technologies, Offenburg, Germany).
For orientation: Changes in cAMP serve as a functional read-out for many G protein-coupled receptors.

Test [3] deals with T1, human CB2R. The experiment in a line: ERK1/2 phosphorylation (AlphaScreen SureFire) in HEK-293T-CB2R cells. The note with it: 100 nM JWH133, 7 min, 25°C, HEK-293T cells transfected with human CB2R; read-out: IC50 of the block of JWH133-triggered ERK1/2 phosphorylation. The test is classed as cell-based. Background: Alpha assays give light when donor and acceptor beads are brought close together.

As to `C=C(C)[C@@H]1CCC(C)=C[C@H]1c1c(O)cc(CCCCC)cc1O` [CBD, cannabidiol], the IC50 at human CB2R [1] was 2 to 8 nM; at human CB2R [2], 3 ± 0.4 nM; at human CB2R [3] it was 29 ± 0.3 nM.
